## Ab-14 heavy chain CDR variants: yeast mating affinities

Reference: Li et al. 2023, doi:10.1038/s41467-023-39022-2. File: FLAb, binding data.

All variants were tested on one target, the spike HR2 peptide PDVDLGDISGINAS (SARS-CoV-2).

Parent: Ab-14, a human scFv built as VH, a (GGGGS)3 linker, VL. Only the CDRs of the heavy chain vary.
VH: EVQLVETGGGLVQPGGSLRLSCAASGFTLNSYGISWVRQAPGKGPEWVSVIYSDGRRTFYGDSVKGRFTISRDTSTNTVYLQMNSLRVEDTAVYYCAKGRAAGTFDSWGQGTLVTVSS
VL: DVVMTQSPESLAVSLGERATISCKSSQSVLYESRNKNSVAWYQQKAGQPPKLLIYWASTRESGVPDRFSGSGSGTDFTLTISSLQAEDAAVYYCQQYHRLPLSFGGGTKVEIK

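Designed CDR sequences, proposed from the first random library and measured here. Their group label is 14H_GP_HC (GP: Gaussian process model; HC: hill climbing; a sequence that several methods proposed may carry one label only). AlphaSeq pools MATa yeast showing the antibodies with MATalpha yeast showing the peptide. Binding brings cells together so that they mate, and sequencing counts the barcode pairs among the diploids. A regression on co-assayed BCL2-family reference pairs converts the normalised counts of each replicate to an apparent Kd. There are six technical replicates.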

Variants are written as CDR1, CDR2 and CDR3 of the heavy chain (limits as in the source). Parent: GFTLNSYGIS, VIYSDGRRTFYGDSVK, GRAAGTFDS.
Affinities are written as log10 Kd with Kd in nM; a lower number is a better binder.
The mean shown is taken over the replicates in which the pair was detected.
An entry "nd" has no value in the source: the pair was not observed among the diploids in that replicate. This suggests poor binding but is not conclusive.
The range of this assay differs from that of the first round, and the authors advise against merging the two.

| CDR-H1 | CDR-H2 | CDR-H3 | log10 Kd (nM) by replicate | log10 Kd (nM), mean | empty controls |
|---|---|---|---|---|---|
| GFSLNWYGIS | VIYSDGRRTYYIDSVK | GRAAGTFDS | nd / nd / nd / nd / 1.21 / nd | 1.21 | 0 of 18 |
| GFTLNEYGIS | VIYSDGRRTFYSDSVK | GRMAGTFDS | 0.09 / -0.13 / -0.28 / -0.39 / -0.53 / -0.06 | -0.22 | 0 of 18 |
| GFQLNSYGIS | VIYSDGKRTFYGDSVK | GRAAGTFDS | nd / 1.59 / 1.71 / 1.93 / 1.83 / 2.02 | 1.81 | 0 of 18 |
| GFTLNEYGIS | VIYSDGRRTFYGDSVK | GRVAGTFDI | nd / nd / -0.63 / 1.17 / 2.21 / nd | 0.92 | 0 of 18 |
| GFILNSYGIS | VIYSDGRRTFYDDSVK | GQAAGTFDS | nd / 1.85 / nd / 2.24 / 2.05 / 0.88 | 1.75 | 0 of 18 |
| GFTLDSYGIS | VIYSDGRRTFYGDSVK | GRQAGTFDQ | 1.11 / 1.13 / nd / 0.89 / 1.41 / 0.90 | 1.09 | 1 of 18 (0.84) |
| GFPLNSYGIS | VIYSDGRRTFYDDSVK | GRLAGTFDS | nd / nd / nd / nd / nd / nd | nd | 0 of 18 |
| GFTLNDYGIS | VIYSDGRRTFYGDSVK | GRHAGTFDI | 1.01 / 0.84 / 0.78 / 0.47 / 1.25 / 1.17 | 0.92 | 1 of 18 (1.92) |
| GFTLNDYGIS | VIYSDGRRTQYSDSVK | GRAAGTFDA | 0.77 / 0.35 / 1.82 / 0.85 / 1.50 / 1.34 | 1.11 | 0 of 18 |
| GFTLNSYGIS | VIYSDGRRTFYDDSVK | GADAGTFDS | nd / nd / nd / 3.10 / nd / nd | 3.10 | 0 of 18 |
| GFTLNQYGIS | VIYSDGWRTFYSDSVK | GRLAGTFDT | 0.91 / 0.11 / 0.35 / 0.37 / 0.46 / 0.46 | 0.44 | 0 of 18 |
| GFTLDSYGIS | VIYSDGMRTFYGDSVK | GRAAGTFDR | 1.07 / 0.97 / -0.31 / nd / 0.13 / 0.21 | 0.41 | 0 of 18 |
| GFTLNDYGIS | VIYSDGRRTFYGDSVK | GRAAGTFFI | nd / nd / nd / nd / nd / nd | nd | 0 of 18 |
| GFTLNSYGIS | VIYSDGERTFYCDSVK | GRVAGTFDS | 2.38 / 2.71 / 1.82 / 2.21 / 2.08 / 2.32 | 2.25 | 1 of 18 (3.01) |
| GFQLNSYGIS | VIYSDGRRTFYGDSVK | GDAAGTFDS | 1.25 / 1.03 / 0.90 / 1.44 / 1.00 / 1.24 | 1.14 | 0 of 18 |
| GRTLNEYGIS | VIYSDGRRTFYTDSVK | GRFAGTFDS | 0.28 / -0.14 / 0.22 / 0.01 / -0.10 / -0.18 | 0.02 | 1 of 18 (2.51) |
| GFGLNSYGIS | VIYSDGRRTFYIDSVK | GRIAGTFDS | nd / 1.73 / nd / 2.06 / 1.63 / nd | 1.81 | 0 of 18 |
| GFTLNEMGIS | VIYSDGRRTFYGDSVK | GRAAVTFDM | nd / nd / nd / nd / nd / nd | nd | 0 of 18 |
| GFKLNEYGIS | VIYSDGRRTQYGDSVK | GRAAGTFDS | nd / 0.31 / 0.51 / 1.57 / nd / 0.75 | 0.79 | 0 of 18 |
| GFTLNSYGIS | VIYSDGRRTFYGDNVK | GQLAGTFDS | 1.24 / nd / 1.38 / 1.96 / nd / 1.97 | 1.64 | 0 of 18 |
| GFSLNNYGIS | VIYSDGRRTFYDDSVK | GQLAGTFDS | 1.18 / 0.09 / 0.74 / 1.82 / 0.31 / 1.96 | 1.02 | 0 of 18 |
| RFTLNSYGIS | VIYSDGRRTFYIDSVK | GRAAGTFDS | nd / nd / nd / nd / nd / nd | nd | 0 of 18 |
| GFTLNEYGIS | VIYSDGRRTFYGDSVK | GREAGTFDM | 1.12 / 1.49 / 0.73 / 0.76 / 0.45 / 1.10 | 0.94 | 0 of 18 |
| GFTLNSYGIS | VIYSDGRRTFYDDSVK | GQTAGTFDT | 0.27 / 0.53 / 0.71 / 0.02 / 0.12 / 0.45 | 0.35 | 0 of 18 |
| GFTLNSYGIS | VIYSDGQRTFYIDSVK | GRIAGTFDS | nd / nd / nd / nd / nd / nd | nd | 0 of 18 |
| GFALNSYGIS | VIYSDGRRTFYQDSVK | GQLAGTFDS | 1.08 / 2.12 / 0.74 / 1.86 / 0.69 / 1.72 | 1.37 | 0 of 18 |
| GFSLNEYGIS | VIYSDGRRTFYWDSVK | GRAAVTFDQ | nd / nd / nd / nd / nd / nd | nd | 0 of 18 |
| SFTLNSYGIS | VIYADGRRTFYGDSVK | GRAAGTFKL | nd / nd / nd / nd / nd / nd | nd | 0 of 18 |
| GFTLNSYGIS | VIYSDGRRTFYSDSVK | GREAGTFDM | nd / nd / nd / nd / 0.01 / nd | 0.01 | 0 of 18 |
| GFTLNEYGIS | VIYSDGRRTFYGDSVK | GRYAGTFDD | nd / nd / nd / nd / 1.77 / nd | 1.77 | 0 of 18 |
| GFTLNSYGIS | VIYSDGRRTFYSDSVK | GQEAGSFDS | 1.35 / 0.97 / 1.18 / nd / 1.52 / 0.96 | 1.20 | 2 of 18 (3.10) |
| GFTLEKYGIS | VIYSDGRRTFYGDSVK | GRAAGTFMS | 0.80 / 1.20 / 0.51 / 1.08 / 0.58 / 0.88 | 0.84 | 1 of 18 (1.58) |
| GFSLNSYGIS | VIYSDGRRTFYTDSVK | GMEAGTFDS | -0.16 / -0.04 / -0.18 / 0.08 / -0.37 / -0.17 | -0.14 | 0 of 18 |

3 of these entries, quoted again:

CDR-H1	CDR-H2	CDR-H3	log10 Kd (nM) by replicate	log10 Kd (nM), mean	empty controls
GFTLNSYGIS	VIYSDGQRTFYIDSVK	GRIAGTFDS	nd / nd / nd / nd / nd / nd	nd	0 of 18
GFTLNSYGIS	VIYSDGRRTFYSDSVK	GREAGTFDM	nd / nd / nd / nd / 0.01 / nd	0.01	0 of 18
GFPLNSYGIS	VIYSDGRRTFYDDSVK	GRLAGTFDS	nd / nd / nd / nd / nd / nd	nd	0 of 18

As a blank, each scFv also met three strains without target: over all heavy chain designs, 1% of these pairings were detected, typically at 2.08 and seldom below 0.84. Also given: how often the same scFv was detected with the empty control strains, with their mean in brackets.
The authors' rule: three or more of the six replicates give a measured affinity, fewer mean a poor binder.